Assay: in vitro
Conditions: human, MRC5 cells
For `CNC(=O)C1Cc2ccccc2N1C(=O)COc1ccc(Cl)cc1` (stereo not drawn), the selectivity ratio was > 1800.
For `CNC(=O)C1Cc2ccccc2N1C(=O)COc1ccc(F)cc1` (stereo not drawn), the selectivity ratio was > 2700.
With `CNC(=O)C1Cc2cc(F)ccc2N1C(=O)COc1ccc(F)cc1` (stereo not drawn) the selectivity ratio was > 720.

— ChEMBL document CHEMBL3621104, “Discovery of Indoline-2-carboxamide Derivatives as a New Class of Brain-Penetrant Inhibitors of Trypanosoma brucei” (J Med Chem, 2015)
